This is an account of results in US7445790B2, “External preparations for skin” (Shiseido Company, Ltd., priority 2002, dated 2008).

This data set in a line: Solubility of a slightly soluble triazine-type ultraviolet absorbent in oil components at 0° C. The class given is physicochemical. The note with it: concentration (mass percentage) in a saturated solution at 0° C. of 2,4-bis{[4-(2-ethylhexyloxy)-2-hydroxy]phenyl}-6-(4-methoxyphenyl)1,3,5-triazine in the oil component.
From the text: (§1) For the slightly soluble ultraviolet absorbent, a triazine-type ultraviolet absorbent 2,4-bis{[4-(2-ethylhexyloxy)-2-hydroxy]phenyl}-6-(4-methoxyphenyl)1,3,5-triazine was used.
This oil component is a mixture of alkyl benzoates having 12-15 carbon atoms.
as §1

Take “Pentaerythrite tetra (2-ethylhexanoate/paramethoxycinnamate)”: the Solubility (Table 1-4) is given as 4% and the Solubility (Table 2-1) turned out to be 4%.
